{"source": "patent US20230381279A1", "about": "“PHARMACEUTICAL COMPOSITION FOR PREVENTING OR TREATING LUPUS-RELATED DISEASES COMPRISING GIP DERIVATIVE OR LONG-ACTING CONJUGATE THEREOF” (HANMI PHARM. CO., LTD., priority 2020, published 2023)", "origin": "cited, not measured here", "conditions": "J Clin Endocrinol Metab. 2000, 85(10):3575-81; cited from earlier work", "data": [{"substance": "glucose-dependent insulinotropic polypeptide [native GIP]", "values": [{"measurement": "half-life in the human body", "value": "about 7 minutes"}]}]}
